The values that follow are results of earlier work, collected in US8951993B2, “Phosphorus containing compounds as protein kinase inhibitors” (Jiangsu Hansoh Pharmaceutical Co., Ltd., priority 2011, dated 2015).

This data set relates to advanced non-small cell lung cancers carrying activated ALK. Conditions: phase I study, advanced NSCLC carrying activated ALK; cited from earlier work.

As for `C[C@@H](Oc1cc(-c2cnn(C3CCNCC3)c2)cnc1N)c1c(Cl)ccc(F)c1Cl` [crizotinib], the overall response rate is given as 57% and the “rate of stable disease” value is listed as 33%.
